Experimental findings from PubChem BioAssay AID2100 (National Center for Advancing Translational Sciences (NCATS), 2009) are described below.

The list shows a part of the results, in another mix than the full data. Inconclusive results are not listed. Activity calls are given as the source filed them. The call rests on the fitted dose curve; in most records, active means well fitted inhibition curve with a large enough effect; inconclusive means small, poorly fitted or top-dose-only effect, or another doubt; inactive means no such curve, though single readings can be large or run the other way.

The target of the assay is Lysosomal alpha-glucosidase (Homo sapiens) (UniProt P10253). Put plainly: qHTS Assay for Inhibitors and Activators of Human alpha-Glucosidase Cleavage of Glycogen.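 Further: 0% = full enzyme reaction and -100% = no-enzyme basal signal; the screen sought inhibitors and activators.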 The following applies: recombinant GAA, glycogen substrate, Amplex Red glucose oxidase fluorescence; at 76.4 µM (top of the series) unless noted. An excerpt: NIH Chemical Genomics Center [NCGC] NIH Molecular Libraries Probe Production Centers Network [MLPCN] MLPCN Grant: R03 MH084841-01 Assay Submitter (PI): Wei Zheng NCGC Assay Overview: Alpha-glucosidase is responsible for the hydrolysis of terminal, non-reducing 1,4-linked alpha-D-glucose residues, which releases alpha-D-glucose. It is a lysosomal hydrolase that is required for the degradation of a small percentage (1-3%) of cellular glycogen in humans. Deficiency of this enzyme results in glycogen-storage disease type II (GSDII), also referred to as Pompe disease, an autosomal recessive disorder. Structurally normal glycogen is accumulated in the lysosomes and cytoplasm in affected patients, primarily in muscle tissues. Excessive glycogen storage within lysosomes may interrupt normal functioning of other organelles and leads to cellular injury. In turn, this leads to enlargement and dysfunction of the entire organ involved (eg: cardiomyopathy and muscle weakness). It has been reported that the improper folding and trafficking of alpha-glucosidase resulting from genetic mutations may account for a significant number of Pompe patients. […] We optimized this alpha-glucosidase assay in 1536-well plate format for identification of novel small molecule inhibitors or activators with structures other than the sugar analogs in order to develop new pharmacological chaperones. Previous assays of alpha-Glucosidase have utilized a non-natural fluorescent substrate to probe enzyme activity. The present assay measures enzyme activity on glycogen using a coupled-assay system to glucose oxidase.
NCGC Assay Protocol Summary: This is an enzyme assay using glycogen from bovine liver (Sigma catalog #: G0885) as the substrate and recombinant human alpha-glucosidase as the enzyme preparation. Upon hydrolysis of the substrate, the glucose product can be detected using the Amplex Red Glucose Oxidase Assay Kit (Invitrogen catalog #: A22189). The product of this reaction can be read with a fluorescence plate reader with an excitation at 573 nm and an emission at 610 nm. Data were normalized to the controls for basal activity (without enzyme) and 100% activity (with enzyme). The AC50 values were determined from concentration-response data modeled with the standard Hill equation. Assay buffer for enzyme reaction: 50 mM citric acid (titrated with potassium phosphate to pH 5.0), 0.01% Tween-20 (pH 5.0 is an optimal condition for this enzyme assay) Assay buffer for Amplex Red reaction: Tris-HCl, pH 7.5 1536-well assay protocol for the alpha-glucosidase assay: (1) Add 2 ul/well alpha-glucosidase enzyme solution (4 nM final) (2) Add 23 nL compounds in DMSO solution. The final titration was 0.7 nM to 77 uM. (3) Add 1 ul of glycogen substrate solution (30 ug) (4) Incubate at 37 C for 40 min (5) Add 2 ul tris-HCl buffer with Amplex Red reagents (6) Incubate 45 min at room temperature. (7) Detect the assay plate in a ViewLux plate reader (PerkinElmer) with Ex=573 nm and Em=610nm. Keywords: Alpha-glucosidase, Pompe Disease, pharmacological chaperone, chaperone therapy, high throughput screening, alpha-glucosidase inhibitor, MLSMR, MLSCN, NIH Roadmap, qHTS and NCGC
On the technique in general: qHTS replaces the single test concentration by a dilution series.
Turning to `Nc1ccccc1[As](=O)(O)c1ccccc1`, the activity change, negative = inhibition is inactive: -3.72%. For `O=C(O)COc1ccc([As](=O)(O)O)cc1[N+](=O)[O-]`, the activity change, negative = inhibition was inactive: 2.48%.

Take `CCOP1(=S)c2c(C)nn(CCC#N)c2N=C(c2ccccc2F)N1C` (stereo not given): the activity change, negative = inhibition is inactive: 7.76%. Then `O=P(Nc1nccs1)(c1ccccc1)c1nc2ccccc2s1` (stereo not given), with inactive: 5.14%; and `O=P(Nc1nccs1)(Oc1ccccc1)Oc1ccccc1`, with inactive: 10.7%; and `CS(=O)(=O)c1cc([N+](=O)[O-])c2no[n+]([O-])c2c1`, with inactive: 2.47%. Then `CCOP1(=S)c2c(C)nn(CCC#N)c2N=C(c2ccc(F)cc2)N1C` (stereo not given), with inactive: -0.754%; and `CN(C(=O)Cc1ccccc1)[C@@H]1CC[C@]2(CCCO2)C[C@H]1N1CCCC1`, with inactive: 7.51%; and `O=[N+]([O-])c1ccc2c(c1)nnn2O`, with inactive: 8.34%. Turning to `NC(=O)Nc1ccc([As](=O)(O)O)cc1`, the activity change, negative = inhibition was inactive: 9.8%.

`O=[As](O)(c1cccc(O)c1)c1cccc(O)c1`: the activity change, negative = inhibition was inactive: 2.11%. The figure for `Cc1cccc(OCC(=O)OC2CN3CCC2CC3)c1` (stereo not given) is inactive: -1.35%; for `O=C(OC1CN2CCC1CC2)c1ccc(Cl)cc1` (stereo not given) it is inactive: 3.59%. For the compound `COc1cc(C(=O)NCC2(N3CCOCC3)CCCCC2)cc(Cl)c1OC(C)C`, the activity change, negative = inhibition is inactive: 28.1%. Then `O=[As](O)(O)c1cccnc1`, with inactive: 0.424%; and `CS(=O)(=O)c1ccc(Cl)c(NC(=O)COC(=O)C(O)(c2ccccc2)c2ccccc2)c1`, with inactive: -4.24% [at 76.3 µM]; and `COc1cc(C2NCCC3(OCCO3)C2(C)C)cc(OC)c1OC` (stereo not given), with inactive: -0.517%. The figure for `CCOP(=O)(Nc1cccc2ccccc12)OCC` is inactive: 1.29%; for `Cc1ccc(NCCc2c([N+](=O)[O-])cc([N+](=O)[O-])cc2[N+](=O)[O-])cc1` it is inactive: -10.8%. Then `Nc1cccc2c([As](=O)(O)O)cccc12`, with inactive: -8%; and `CCCOP(=S)(Nc1nc(N)cc(=O)[nH]1)OCCC`, with inactive: -1.29%.

Regarding `Clc1n[nH]nc1-c1nn[nH][15n]1`, the activity change, negative = inhibition was inactive: 0.0318%.

`CC(C)(C)C(=O)NC(Sc1ncccn1)C(Cl)(Cl)Cl` (stereo not given): the activity change, negative = inhibition is inactive: 0.814%. The figure for `O=P1(Nc2ccccn2)COc2ccccc2OC1` is inactive: -0.0921%; for `CCC1=CC2Cc3nc4ccc(Cl)cc4c(N)c3C(C1)C2` (stereo not given) it is inactive: 13.9% [at 76.3 µM]. The figure for `CCOP(=O)(NC(=NC(C)c1ccccc1)NC(C)c1ccccc1)OCC` (stereo not given) is inactive: 2.49%. Then `CCOP(=O)(Nc1ccc(C)cn1)OCC`, with inactive: -7.16%; and `CC(C)/C=N\N=C(\N)N[N+](=O)[O-]`, with inactive: 1.09%. Consider `CN(C(=O)Cc1ccc(Cl)c(Cl)c1)[C@@H]1CCCC[C@H]1N1CCCC1`, for which the activity change, negative = inhibition is inactive: -0.741%. The figure for `O=[As](O)(c1ccccc1Br)c1ccccc1Br` is inactive: 2.28%; for `CN(C)C1(CNC(=O)c2ccc(S(C)(=O)=O)cc2)CCCCC1` it is inactive: -6.5%. The figure for `O=C(/C=C/c1ccccc1)OC1CN2CCC1CC2` (stereo not given) is inactive: 7.32%; for `Cc1nn(-c2ccccc2)c2c1P(=O)(N1CCOCC1)N(C)C(c1ccccc1)=N2` (stereo not given) it is inactive: 2.15%; for `CC1CCC(C(C)C)C(OP(=O)(Nc2ccccn2)c2ccccc2)C1` (stereo not given) it is inactive: -1.18%. Then `Cc1ccc(C(=O)OC2CN3CCC2CC3)cc1` (stereo not given), with inactive: -3.44%; and `Nc1cccc([As](=O)(O)c2ccccc2)c1`, with inactive: -0.0484%; and `O=P1(Nc2ccc(Br)cn2)COc2ccccc2OC1`, with inactive: -6.64%. As to `Cc1ccc(OCC(=O)OC2CN3CCC2CC3)cc1` (stereo not given), the activity change, negative = inhibition was inactive: -0.655%. Then `O=[As](O)(c1cccs1)c1cccs1`, with inactive: -4.19%; and `O=P1(Nc2ncccn2)COc2ccccc2OC1`, with inactive: 7.63%; and `CCCCOc1ccc(C(=O)NCC2(N3CCCCC3)CCCCC2)cc1OC`, with inactive: -7.09% [at 76.3 µM]. As for `Cc1cc(SC(NC(=O)c2ccccc2)C(Cl)(Cl)Cl)nc(C(C)C)n1` (stereo not given), the activity change, negative = inhibition is inactive: -3.6%. The figure for `CCOC(=O)Nc1ccc([As](=O)(O)O)c(O)c1` is inactive: 5.05%; for `O=P(Nc1ccccn1)(c1cccc2ccccc12)c1cccc2ccccc12` it is inactive: -7.54%; for `O=[N+]([O-])c1ccc(Nc2ccc(Oc3ccc([N+](=O)[O-])cc3[N+](=O)[O-])cc2)c([N+](=O)[O-])c1` it is inactive: 0.349%.

Turning to `CCOC(=O)Nc1cccc([As](=O)(O)O)c1`, the activity change, negative = inhibition is inactive: 2.8%.

On to `O=C(COc1ccccc1)OC1CN2CCC1CC2` (stereo not given), for which the activity change, negative = inhibition is inactive: -5.6%. The figure for `O=C(Nc1ccncc1[N+](=O)[O-])c1ccc([N+](=O)[O-])cc1[N+](=O)[O-]` is inactive: 3.75%; for `COP1(=S)c2c(C)nn(CCC#N)c2N=C(c2ccc(F)cc2)N1C` (stereo not given) it is inactive: 5.47%. Then `CCC(C)N(CC(C)C)C(=S)SC(NC(C)=O)C(Cl)(Cl)Cl` (stereo not given), with inactive: 0.334%.
